Source: PMC8958505, “Discovery of Potential Neuroprotective Agents against Paclitaxel-Induced Peripheral Neuropathy” (Journal of Medicinal Chemistry, 2022)
Counter-ions that a name gives are not always drawn.

Assays:
ICR mice = test: Acute single-dose toxicity study; type: in vivo; conditions: for survival / survival rate: saline
Protocol: An acute single-dose toxicity study was conducted in male ICR mice. 7-week-old ICR male mice were intravenous bolus administered with CN016 dissolved in 0.9% sodium chloride solution by using dose escalation procedure to approach the toxicity of CN016. The treatment groups included 50, 100, 300, and 500 mg/kg dose levels and three to six mice for each group. The injection volume was calculated based on the individual body weight. […] Animal body weight was measured once daily during the 14 day observation period of the study. All animals were euthanized with 100% CO2 at the end of the study.

GABAB1A = GABAB1A (Homo sapiens, UniProt Q9UBS5); test: LeadProfilingScreen: GABAB1A; type: binding
Imidazoline I2, Central = test: LeadProfilingScreen: Imidazoline I2, Central; type: binding, rat; conditions: 10 μM
Nicotinic Acetylcholine = test: 67 off-target study: Nicotinic Acetylcholine (as named in Table S5); type: binding; conditions: 10 μM; item as named in Table S5

Structure (SMILES): O=P(O)(O)CCN1CCC(Nc2cc(N3CCOCC3)nc(NCc3cn(CCCO)nn3)n2)CC1 [CN016, {2-[4-(2-{[1-(3-Hydroxy-propyl)-1H-[1,2,3]triazol-4-ylmethyl]-amino}-6-morpholin-4-yl-pyrimidin-4-ylamino)-piperidin-1-yl]-ethyl}-phosphonic Acid Hydrobromide Salt]
- survival (ICR mice; 50 mg/kg IV): 3/3
- survival rate (ICR mice; 50 mg/kg IV): 100%
- survival (ICR mice; 100 mg/kg IV): 6/6
- survival rate (ICR mice; 100 mg/kg IV): 100%
- survival (ICR mice; 300 mg/kg IV): 3/3
- survival rate (ICR mice; 300 mg/kg IV): 100%
- survival (ICR mice; 500 mg/kg IV): 3/3
- survival rate (ICR mice; 500 mg/kg IV): 100%
- maximum tolerance dose (MTD) (ICR mice; intravenous, ICR mice): > 500 mg/kg
- inhibition at 10 µM (GABAB1A): 14%
- Inhibition (%), Imidazoline I2, Central (Imidazoline I2, Central): -5%
- Inhibition (%), Nicotinic Acetylcholine (Nicotinic Acetylcholine): -6%
